Literature values as cited in publication PMC9103705, “Effects of Drugs Formerly Proposed for COVID-19 Treatment on Connexin43 Hemichannels” (International Journal of Molecular Sciences, 2022).

Settings: retrieved from the literature; cited from earlier work

Structure (SMILES): CCN(CCO)CCCC(C)Nc1ccnc2cc(Cl)ccc12 (stereo not shown) [Hydroxychloroquine (sulphate), Hydroxychloroquine]
- Cmax (total peak plasma concentration at therapeutic dose): 1.36 [27] µM
